Read-outs that look alike come from different tables or passages of the source.
Legend:
[1] = biological target: T1, sigma1 receptor (Mus musculus, UniProt O55242); details: 1.0 nM [3H](+)-pentazocine; 6 h; 37 °C; mouse lung membranes
[2] = biological target: T1, sigma1 receptor; experiment: biochemical
[3] = biological target: T1, sigma1 receptor

Protein sequences, listed by entry. Tags and fused reporters are not part of them.
UniProt O55242, whole entry: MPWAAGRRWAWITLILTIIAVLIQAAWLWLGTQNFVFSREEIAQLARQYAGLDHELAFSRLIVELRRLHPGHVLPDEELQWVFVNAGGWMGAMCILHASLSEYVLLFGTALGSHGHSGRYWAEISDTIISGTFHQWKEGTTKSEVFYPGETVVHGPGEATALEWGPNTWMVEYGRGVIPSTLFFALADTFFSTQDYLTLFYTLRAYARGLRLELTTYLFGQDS

Row | SMILES | Sigma1 nH (pseudo-Hill slope) [1] | Ki [2] [nM] | specific radioligand binding as share of total binding ([3]; 0.7 nM, 6 – 8 h, 1.0 µM haloperidol non-specific) [%] | time to steady state of specific binding ([3]; 37 °C, 0.7 nM) [h] | time to steady state of specific binding ([3]; 37 °C, 3.0 nM) [h] | Bmax, saturation binding, first set ([3]; 6 h, 37 °C, n = 4, mean ± S.E.M.) [fmol / mg protein] | Bmax, saturation binding, pooled data ([3]; 6 h, 37 °C, n = 8) [fmol / mg protein] | Kd ([3]; read-out: Kd, saturation binding, pooled data, 6 h, 37 °C, n = 8) [nM]
1 | CC(C)=CCN1CC[C@]2(C)c3cc(O)ccc3C[C@H]1[C@H]2C [(+)-Pentazocine, (+)-pentazocine] | 1.07 ± 0.13 | 1.3 ± 0.05 |  |  |  |  |  | 
2 | CC(C)=CCN1CC[C@]2(C)c3cc(O)ccc3C[C@H]1[C@H]2C [[^3H](+)-pentazocine] |  |  | 87 | ≤ 6 | ≤ 5 | 951 ± 18 | 967 ± 11 | 1.36 ± 0.04
